Results published in patent US20100223737A1, “ORGANIC CATALYST WITH ENHANCED ENZYME COMPATIBLITY” (priority 2009, published 2010).

Chains of the proteins cited; added tags and fusions are not shown. Lines headed by an entry give the natural chain unless they say otherwise; changes in a name come on top.
UniProt P06278: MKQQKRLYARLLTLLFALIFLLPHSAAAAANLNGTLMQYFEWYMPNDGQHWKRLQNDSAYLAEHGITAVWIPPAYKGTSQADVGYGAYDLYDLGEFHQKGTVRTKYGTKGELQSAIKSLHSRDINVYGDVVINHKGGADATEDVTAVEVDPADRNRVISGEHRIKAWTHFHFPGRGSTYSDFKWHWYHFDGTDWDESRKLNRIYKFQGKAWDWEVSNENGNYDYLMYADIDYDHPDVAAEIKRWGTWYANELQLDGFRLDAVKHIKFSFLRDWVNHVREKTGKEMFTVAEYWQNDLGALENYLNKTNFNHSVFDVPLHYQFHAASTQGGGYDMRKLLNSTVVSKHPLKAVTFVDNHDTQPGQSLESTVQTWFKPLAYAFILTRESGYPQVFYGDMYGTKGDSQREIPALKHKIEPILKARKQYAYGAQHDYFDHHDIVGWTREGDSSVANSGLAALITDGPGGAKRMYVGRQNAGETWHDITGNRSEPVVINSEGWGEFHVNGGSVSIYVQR

Molecular target: Termamyl (Bacillus licheniformis, UniProt P06278)
Assay: Organic Catalyst/Enzyme Compatibility Test (alpha amylase activity assay), Termamyl
Conditions: (Ac/Ab)x100; [Peracetic Acid]=5.0 ppm; [organic catalyst]=0.5 ppm; 40° C.; sample at 7 minutes 45 seconds

Substance | Enzyme Compatibility Values ECVter
Sulfuric acid mono-[2-(3,4-dihydro-isoquinolin-2-yl)-1-(iso-nonyloxymethyl)-ethyl]ester, internal salt | 86
Sulfuric acid mono-[2-(3,4-dihydro-isoguinolin-2-yl)-1-(iso-decyloxymethyl)-ethyl]ester, internal salt | 98
Sulfuric acid mono-[2-(3,4-dihydro-isoquinolin-2-yl)-1-(iso-tridecyloxymethyl)-ethyl]ester, internal salt | 99
Sulfuric acid mono-[2-(3,4-dihydro-isoquinolin-2-yl)-1-(2-butyloctyloxymethyl)-ethyl]ester, internal salt | 101
Sulfuric acid mono-[2-(3,4-dihydro-isoquinolin-2-yl)-1-(2-propylheptyloxymethyl)-ethyl]ester, internal salt | 98
